Three compounds from patent publication US8877763B2, “Substituted pyridopyrimidine compounds and their use as FLT3 inhibitors” (Genosco, priority 2012, dated 2014) can be followed below.

The chains behind the UniProt entries cited, without tags or fusion partners. Where a name states a change or a piece, a line headed by the entry shows the natural chain unless it says otherwise. Residues count along the entry.
UniProt P36888, 564-993 D835Y limits assumed: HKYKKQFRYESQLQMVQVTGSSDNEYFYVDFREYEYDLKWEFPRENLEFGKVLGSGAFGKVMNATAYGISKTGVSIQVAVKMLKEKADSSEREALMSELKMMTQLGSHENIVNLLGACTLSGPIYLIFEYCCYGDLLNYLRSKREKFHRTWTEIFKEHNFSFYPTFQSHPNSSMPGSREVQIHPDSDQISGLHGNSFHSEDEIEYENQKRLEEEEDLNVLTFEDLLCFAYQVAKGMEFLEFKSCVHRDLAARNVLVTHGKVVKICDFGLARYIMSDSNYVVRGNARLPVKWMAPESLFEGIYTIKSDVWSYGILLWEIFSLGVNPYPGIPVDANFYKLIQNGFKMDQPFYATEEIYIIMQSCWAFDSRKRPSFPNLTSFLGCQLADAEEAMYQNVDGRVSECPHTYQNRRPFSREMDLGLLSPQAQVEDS
UniProt P36888, 564-993 limits assumed: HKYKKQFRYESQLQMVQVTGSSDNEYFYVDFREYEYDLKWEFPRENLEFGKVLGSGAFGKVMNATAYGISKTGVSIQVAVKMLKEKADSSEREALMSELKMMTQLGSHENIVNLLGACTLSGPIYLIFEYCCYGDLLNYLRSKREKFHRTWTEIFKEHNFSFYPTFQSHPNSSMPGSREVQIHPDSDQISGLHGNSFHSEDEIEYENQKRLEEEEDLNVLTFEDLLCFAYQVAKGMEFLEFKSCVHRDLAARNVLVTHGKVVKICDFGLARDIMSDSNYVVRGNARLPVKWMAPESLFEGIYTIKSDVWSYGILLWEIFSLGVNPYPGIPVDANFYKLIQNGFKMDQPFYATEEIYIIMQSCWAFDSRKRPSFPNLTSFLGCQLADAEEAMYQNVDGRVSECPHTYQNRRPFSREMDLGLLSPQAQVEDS
UniProt O60674, 826-1132 limits assumed: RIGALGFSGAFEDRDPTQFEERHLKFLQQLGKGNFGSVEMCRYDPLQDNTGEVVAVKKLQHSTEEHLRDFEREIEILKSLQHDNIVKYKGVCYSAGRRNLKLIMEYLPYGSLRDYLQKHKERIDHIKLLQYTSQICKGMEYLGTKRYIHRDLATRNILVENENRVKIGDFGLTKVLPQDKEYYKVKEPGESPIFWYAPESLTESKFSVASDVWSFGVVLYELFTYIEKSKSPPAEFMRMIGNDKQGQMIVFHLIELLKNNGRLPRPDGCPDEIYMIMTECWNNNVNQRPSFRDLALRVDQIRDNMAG

Where two headings read alike, the source gives them in different places.

For data set [1], the target named is FLT3 mutant D835Y (Homo sapiens, UniProt P36888, D835Y). Description: Inhibition of enzymatic FLT3 mutant D835Y kinase activity (Lance Ulight TR-FRET). The format is biochemical. Particulars: read-out: FLT3-D835Y IC50.
The target in data set [2] is JAK2 (Homo sapiens, UniProt O60674). The data set is described as follows: Inhibition of enzymatic JAK2 kinase activity (Lance Ulight TR-FRET). The class given is biochemical. Particulars: read-out: JAK2 IC50; tested form: HCl. (In general: In TR-FRET formats the signal depends on donor and acceptor labels being close together.)
Data set [3] deals with MV4-11 cells expressing human FLT3-ITD. The data set is described as follows: Cell viability assay: inhibition of FLT3-ITD-positive cells (ATPLite). Particulars: read-out: MV4-11 cell (IC50); 72 hour incubation; tested form: HCl. A general note: Cellular ATP, detected with luciferase, serves as a proxy for viable cell number.
For data set [4], the target named is Truncated human FLT3 wildtype (Homo sapiens, UniProt P36888). The data set is described as follows: Inhibition of enzymatic FLT3 wildtype kinase activity (Lance Ulight TR-FRET). The format is biochemical. Particulars: read-out: FLT3 wildtype IC50; tested form: HCl.
A short description of data set [5]: Drug exposure in rat after oral administration. Particulars: oral administration of 10 mg/kg.

Regarding `NC1CCN(c2nc(Nc3ccc(Oc4ccccc4)cc3)c3c(=O)[nH]cc(Br)c3n2)CC1`, the IC50 (usually the concentration that gives 50% inhibition) in data set [1] (tested form: HCl) came to 18.5 nM; in data set [2], 391 nM; in data set [3] it was 5.8 nM; in data set [4], 0.2 nM.
`O=c1[nH]ccc2nc(N[C@H]3CCNC3)nc(Nc3ccc(N4CCOCC4)cc3)c12`: the IC50 in data set [1] turned out to be 0.3 nM. Also, the drug exposure result in data set [5] was “no drug exposure”.
With `O=c1[nH]ccc2nc(N[C@H]3CCNC3)nc(Nc3ccc(C(F)(F)F)cc3)c12`, the IC50 in data set [1] amounted to 1 nM. Further, in data set [5], the drug exposure entry was “no drug exposure”.
